{"source": "PubChem BioAssay AID652067", "about": "(The Scripps Research Institute Molecular Screening Center, 2013)", "note": "The entries are a selection whose mix differs from that of the whole data set. Activity calls are given as the source filed them.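 How the source made its calls: active means activation above the mean of all tested compounds plus 3 SD (cut at about 5.5% in these data); inactive means the rest.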"}
{"test_system": "DAF-12 nuclear receptor (Haemonchus contortus)", "experiment": "H. contortus DAF-12 nuclear receptor activators, primary screen, cell-based, luminescence, HEK293, lit1-tk-luc reporter (AID 652067);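 further: 100% = response to 3 µM Δ7-dafachronic acid high control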", "settings": "HEK293 hcDAF-12 lit1-tk-luc reporter, at 6.8 µM, active compounds read high, 0% DMSO, 100% Δ7-dafachronic acid"}
{"smiles": "CCC(=O)N(c1ccccc1)C1(COC)CCN(CCc2cccs2)CC1", "activation": "inactive: 1.18%"}
{"smiles": "CCC(=O)N(c1ccccc1)C1(COC)CCN(CCn2nnn(CC)c2=O)CC1", "activation": "inactive: -1.9%"}
